According to patent US20120065203A1, “Methods of Reducing Serum Glucose and Triglyceride Levels and for Inhibiting Angiogenesis Using Substituted Indolealkanoic Acids” (The Institute for Pharmaceutical Discovery, LLC, priority 1998, published 2012):

Target: human aldose reductase (hALR2) (Homo sapiens, UniProt P15121)
Test: Inhibition of human aldose reductase (hALR2)
Format: biochemical
Conditions: ratio of hALR1 IC50 to hALR2 IC50 (selectivity)
Description: Representative compounds of the invention were tested for their potency, selectivity and efficacy as inhibitors of human aldose reductase.

**Q.** `O=C(O)Cn1cc(Cc2nc3c(F)c(F)cc(F)c3s2)c2c(Cl)cccc21` [Example 29, 4-Chloro-3-(4,5,7-trifluorobenzothiazol-2-yl)methyl-indole-N-acetic acid] was tested. Which HALR1/hALR2 did it give?
**A.** 1,270

**Q.** Which HALR1/hALR2 does the source give for `COc1ccc2c(c1)c(Cc1nc3c(F)c(F)cc(F)c3s1)cn2CC(=O)O` [Example 30, 5-Methoxy-3-(4,5,7-trifluorobenzothiazol-2-yl)methyl-indole-N-acetic acid] here?
**A.** 2,700
